# Values of other authors as cited in patent US20200224136A1, “INTESTINE-CHIP: DIFFERENTIAL GENE EXPRESSION MODEL” (priority 2019, published 2020).
# Experiments:
# human PXR (hPXR) = biological target: T1, human PXR (hPXR) (Homo sapiens, UniProt O75469); settings: cited from earlier work
# T1 sequence (O75469 1-434): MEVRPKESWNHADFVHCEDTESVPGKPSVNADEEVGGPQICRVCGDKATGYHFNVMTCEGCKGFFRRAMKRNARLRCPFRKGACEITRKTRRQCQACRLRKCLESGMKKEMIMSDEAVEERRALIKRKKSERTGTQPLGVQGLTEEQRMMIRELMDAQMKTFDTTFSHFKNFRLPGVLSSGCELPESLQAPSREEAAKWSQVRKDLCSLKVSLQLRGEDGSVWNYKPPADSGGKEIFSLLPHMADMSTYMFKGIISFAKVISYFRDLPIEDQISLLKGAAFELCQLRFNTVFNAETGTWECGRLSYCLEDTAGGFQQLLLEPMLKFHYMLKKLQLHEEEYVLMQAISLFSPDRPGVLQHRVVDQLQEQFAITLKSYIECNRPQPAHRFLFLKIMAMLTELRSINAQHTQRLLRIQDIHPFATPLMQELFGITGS
# mouse PXR (mPXR) = biological target: T2, mouse PXR (mPXR) (Mus musculus, UniProt O54915); settings: cited from earlier work
# T2 sequence (O54915 1-431): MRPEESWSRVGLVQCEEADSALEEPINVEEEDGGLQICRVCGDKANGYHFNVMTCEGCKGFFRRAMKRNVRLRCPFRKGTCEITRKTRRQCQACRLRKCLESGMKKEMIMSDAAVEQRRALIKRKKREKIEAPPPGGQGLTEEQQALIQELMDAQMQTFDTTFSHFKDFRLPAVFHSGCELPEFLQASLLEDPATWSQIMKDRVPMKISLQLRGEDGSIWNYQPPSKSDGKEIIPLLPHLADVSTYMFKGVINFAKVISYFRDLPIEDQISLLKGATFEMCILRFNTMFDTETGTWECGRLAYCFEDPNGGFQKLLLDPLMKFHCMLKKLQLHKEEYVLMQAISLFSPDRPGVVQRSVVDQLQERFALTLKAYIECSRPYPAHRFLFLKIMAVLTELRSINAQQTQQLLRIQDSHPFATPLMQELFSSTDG
substance,measurement,setting,value
rifampicin,agonism at human PXR,human PXR (hPXR),potent agonists
same,agonism at mouse PXR,mouse PXR (mPXR),not for mouse PXR
